This assay has as its target human VPS34 (Homo sapiens (Human), UniProt Q8NEB9). The assay is described as follows: Human VPS34 enzyme assay (Adapta TR-FRET ADP detection). It counts as biochemical. Background: In TR-FRET formats the signal depends on donor and acceptor labels being close together.

Amino acid sequences for entries named in this document (tags omitted).
UniProt Q8NEB9, whole entry: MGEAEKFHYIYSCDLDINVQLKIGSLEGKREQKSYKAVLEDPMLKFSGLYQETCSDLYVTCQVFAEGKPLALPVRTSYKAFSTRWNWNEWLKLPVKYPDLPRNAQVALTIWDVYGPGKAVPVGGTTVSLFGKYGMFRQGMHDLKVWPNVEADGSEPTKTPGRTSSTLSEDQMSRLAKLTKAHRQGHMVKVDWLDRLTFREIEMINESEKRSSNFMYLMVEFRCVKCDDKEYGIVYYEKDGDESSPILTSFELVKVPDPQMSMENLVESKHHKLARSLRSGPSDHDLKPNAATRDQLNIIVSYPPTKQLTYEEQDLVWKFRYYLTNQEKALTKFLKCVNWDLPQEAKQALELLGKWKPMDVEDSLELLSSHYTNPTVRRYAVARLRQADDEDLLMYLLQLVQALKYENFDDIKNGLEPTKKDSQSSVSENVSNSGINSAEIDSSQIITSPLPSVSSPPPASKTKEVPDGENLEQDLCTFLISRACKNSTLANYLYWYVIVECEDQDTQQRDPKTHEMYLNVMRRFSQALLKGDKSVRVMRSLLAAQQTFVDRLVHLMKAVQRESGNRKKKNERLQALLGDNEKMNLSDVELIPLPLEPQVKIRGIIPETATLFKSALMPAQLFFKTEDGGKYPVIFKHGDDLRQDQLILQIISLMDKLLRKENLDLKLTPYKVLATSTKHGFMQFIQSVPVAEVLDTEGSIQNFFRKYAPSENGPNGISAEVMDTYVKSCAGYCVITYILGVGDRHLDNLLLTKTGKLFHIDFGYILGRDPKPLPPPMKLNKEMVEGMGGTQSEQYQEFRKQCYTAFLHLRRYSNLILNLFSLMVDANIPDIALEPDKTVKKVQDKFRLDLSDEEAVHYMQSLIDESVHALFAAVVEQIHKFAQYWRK

What is called IC50 is the concentration needed to halve the response being measured. Read a high IC50 as weaker potency. As for `Cc1nccc(Nc2cc(-c3cc(NS(=O)(=O)N(C)C)c4ccnn4c3)ccn2)n1` [Compound I-421, N,N-dimethyl-N′-(6-[2-[(2-methylpyrimidin-4-yl)amino]pyridin-4-yl]pyrazolo[1,5-a]pyridin-4-yl)sulfuric diamide], the IC50 fell in the range of 10 to 50 nM.

The values above are taken from patent US9751854B2 (Millennium Pharmaceuticals, Inc., priority 2014, dated 2017).
